These results are taken from patent US11702404B2, “GLP-1R modulating compounds” (priority 2019, dated 2023).

A short description of this data set: Microsomal stability, human liver microsomes (predicted hepatic clearance). The note with it: predicted from in vitro microsomal stability data.

Take `N#Cc1ccc(COc2cccc(-c3ccc(Cc4nc5ccc(C(=O)O)cc5n4C[C@@H]4CCO4)cc3)n2)c(F)c1` [Example 634]: the “Predicted Hepatic Clearance (Pred. Cl.)” value was 5.5 mL/min/kg.
